Series [1] in a line: Kinetic solubility of the compound in phosphate buffer at pH 7.4. It counts as physicochemical. In outline: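 Kinetic and thermodynamic aqueous solubilities were measured in phosphate buffer at pH 7.4.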
The target of the next series is Protein Wnt-3a (Homo sapiens, UniProt P56704). Kind of series: Inhibition of ligand-induced WNT3A signaling in human PA-1 cells harboring TCF preincubated for 6 hrs before ligand addition measured after 24 hrs by luciferase reporter assay. It is filed as cell-based. (In general: A reporter such as luciferase makes a cellular process visible.)

By UniProt entry, the sequences of proteins in these tests, tags left out.
UniProt P56704, whole entry: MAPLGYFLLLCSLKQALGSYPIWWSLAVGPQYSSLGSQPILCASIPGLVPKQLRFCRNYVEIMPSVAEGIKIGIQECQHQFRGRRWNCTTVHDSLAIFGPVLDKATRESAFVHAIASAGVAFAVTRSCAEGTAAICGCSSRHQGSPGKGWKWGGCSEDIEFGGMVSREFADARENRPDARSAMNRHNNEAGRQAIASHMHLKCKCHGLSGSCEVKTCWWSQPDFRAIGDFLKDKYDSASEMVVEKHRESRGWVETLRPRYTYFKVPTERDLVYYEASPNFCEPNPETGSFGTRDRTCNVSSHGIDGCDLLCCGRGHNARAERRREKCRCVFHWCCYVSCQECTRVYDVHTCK

As a reminder, the IC50 is the concentration needed to halve the response being measured.

As for `Cn1cc(-c2ccc(-c3cncc(Cl)c3N3CCC4(CCNC4=O)CC3)cc2)cn1`, the Kinetic_solubility in series [1] worked out at 94 µM. This molecule registered an IC50 on Protein Wnt-3a of 7 nM.

For the origin of these results see ChEMBL document CHEMBL3407438, “Discovery of potent, orally bioavailable, small-molecule inhibitors of WNT signaling from a cell-based pathway screen” (J Med Chem, 2015).
